For the data set the following is noted: monovalent trastuzumab knob-hole cyclotide fusions, 25 mg/kg, 24 hours, brain homogenate ELISA, versus trastuzumab alone; FIG. 9. (In general: In an ELISA, binding on a coated surface is turned into a signal by an enzyme label.)

This note sets out measurements from patent US20250340604A1, “BLOOD-BRAIN BARRIER TRANSLOCATING PEPTIDES AND RELATED MOLECULES AND METHODS OF USE THEREOF” (Enkefalos Biosciences, Inc., priority 2022, published 2025).

Take CYC17: the “brain-specific delivery of trastuzumab (percents of injected dose per gram of brain)” value is recorded as “improved brain-specific delivery”.
